# PubChem BioAssay AID1565 (Sanford-Burnham Center for Chemical Genomics, 2009)
# Chains of the proteins cited; added tags and fusions are not shown.
# UniProt Q8TCT1, whole entry: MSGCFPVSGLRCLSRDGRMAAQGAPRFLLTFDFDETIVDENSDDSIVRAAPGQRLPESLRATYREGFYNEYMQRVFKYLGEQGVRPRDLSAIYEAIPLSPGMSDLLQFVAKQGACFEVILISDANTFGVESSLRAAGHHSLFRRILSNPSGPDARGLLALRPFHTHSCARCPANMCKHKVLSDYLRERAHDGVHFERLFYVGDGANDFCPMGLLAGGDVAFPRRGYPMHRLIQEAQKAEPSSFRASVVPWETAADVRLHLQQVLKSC
# The entries are a selection whose mix differs from that of the whole data set. Some of these compounds have results that are not shown, active ones among them. Active and inactive are the calls of the source. Cut-off read from the data, not from the text of the source: active = inhibition above about 60%; inactive = the rest.
# Biological target: Phosphoethanolamine/phosphocholine phosphatase (Homo sapiens) (UniProt Q8TCT1)
# Test: PubChem AID 1565
# Conditions: recombinant PHOSPHO1, absorbance phosphatase assay; at 13.3 µM; active compounds read high
row,Compound,inhibition
1,COc1cc(C(=O)NCC2(N(C)C)CCCCC2)c([N+](=O)[O-])cc1OC,inactive: 37.1%
2,CN(C)C1(CNC(=O)c2ccc(Br)cc2)CCCCC1,inactive: 38.1%
3,O=C(NCC1(N2CCCCC2)CCCCC1)c1cccc(Cl)c1,inactive: -4.1%
4,COc1cccc(C(=O)NCC2(N3CCCCC3)CCCCC2)c1,inactive: 6.6%
5,COc1ccc(Cl)cc1C(=O)NCC1(N(C)C)CCCCC1,inactive: 34%
6,O=C(OC1CN2CCC1CC2)C(CO)(c1ccccc1)c1ccccc1 (stereo not drawn),inactive: -3.3%
7,CN(C)c1cccc(C(=O)NCC2(N(C)C)CCCCC2)c1,inactive: -1%
8,COc1ccc(Br)c(C(=O)NCC2(N3CCCCC3)CCCCC2)c1,inactive: 14.7%
9,CN1[C@@H]2CC[C@H]1CC(OC(=O)C(O)(c1ccccc1)c1ccccc1)C2 (stereo partly drawn),inactive: 32.6%
10,O=C(NCC1(N2CCCCC2)CCCCC1)c1cc([N+](=O)[O-])ccc1Cl,inactive: -3.9%
11,Cc1ccc(C(=O)NCC2(N3CCCCC3)CCCCC2)cc1,inactive: -16%
12,CCN(CC)CC(C)C(C)OC(=O)C(O)(c1ccccc1)c1ccccc1 (stereo not drawn),inactive: 28.3%
13,COc1cc(SC)ccc1C(=O)NCC1(N(C)C)CCCCC1,inactive: 32.6%
14,CC(C)N1C(=O)CC2(CCN(CCOC(=O)C(O)(c3ccccc3)c3ccccc3)CC2)C1=O,inactive: 3.9%
15,Cc1ccccc1C(=O)NCC1(N2CCCCC2)CCCCC1,inactive: 42.1%
16,CN(C)C1CCCC1OC(=O)C(O)(c1ccccc1)c1ccccc1 (stereo not drawn),inactive: -0.6%
17,CN(C)c1ccc(C(=O)NCC2(N(C)C)CCCCC2)cc1,inactive: 33%
18,COc1ccc(C(=O)NCC2(N(C)C)CCCCC2)cc1,inactive: 6.9%
19,Cc1cc(C(=O)NCC2(N3CCCCC3)CCCCC2)ccc1[N+](=O)[O-],inactive: 14.6%
20,CCN1CCCC(OC(=O)C2(O)c3ccccc3C=Cc3ccccc32)C1 (stereo not drawn),inactive: 9.3%
21,O=C(NCC1(N2CCCCC2)CCCCC1)c1cccc(Br)c1,inactive: 23.2%
22,C=CCN1CCN(CCOC(=O)C(O)(c2ccccc2)c2ccccc2)CC1,inactive: 44.8%
23,O=C(NCC1(N2CCCCC2)CCCCC1)c1cc(F)c(F)cc1Cl,inactive: 15.1%
